In PubChem BioAssay AID1553 (Sanford-Burnham Center for Chemical Genomics, 2009):
The source made the active and inactive calls.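 How the source made its calls: active means compounds graded as giving a low, moderate or strong rise in tritium labelling of cell protein versus solvent control; inactive means the rest.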

Test system: HeLa cells, 3H-mannose incorporation into glycoproteins
Assay: 3H-mannose glycoprotein labeling increase in HeLa – HeLa cells, orthogonal assay for PMI inhibitor project, late-stage follow-up (AID 1553);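 further: 1 fold = DMSO treated HeLa control cells; higher fold signals phosphomannose isomerase inhibition routing mannose into glycosylation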

Q: How did the fold increase 3H incorporation (at 100 µM) turn out when CN(C)C(=O)c1cccc(-n2sc3ccccc3c2=O)c1 was run?
A: inactive: 0.8

Q: And the fold increase 3H incorporation (fold increase, at 25 µM, stronger effect = higher value)?
A: 1
